Measured values from PubChem BioAssay AID624330 (Southern Research Specialized Biocontainment Screening …, 2012).
This is one part of the list. Results with a measured potency or affinity are listed apart. Some salts or complexes appear as unconnected parts, following the source record. The source made the active and inactive calls.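 Rule for the calls: active = first-screen hits whose inhibition reached a set limit at any dose in the follow-up dose series; inconclusive = inhibition above the set first-screen limit but never retested; inactive = the rest.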

Chains of the proteins cited; added tags and fusions are not shown.
UniProt Q9H0H5, whole entry: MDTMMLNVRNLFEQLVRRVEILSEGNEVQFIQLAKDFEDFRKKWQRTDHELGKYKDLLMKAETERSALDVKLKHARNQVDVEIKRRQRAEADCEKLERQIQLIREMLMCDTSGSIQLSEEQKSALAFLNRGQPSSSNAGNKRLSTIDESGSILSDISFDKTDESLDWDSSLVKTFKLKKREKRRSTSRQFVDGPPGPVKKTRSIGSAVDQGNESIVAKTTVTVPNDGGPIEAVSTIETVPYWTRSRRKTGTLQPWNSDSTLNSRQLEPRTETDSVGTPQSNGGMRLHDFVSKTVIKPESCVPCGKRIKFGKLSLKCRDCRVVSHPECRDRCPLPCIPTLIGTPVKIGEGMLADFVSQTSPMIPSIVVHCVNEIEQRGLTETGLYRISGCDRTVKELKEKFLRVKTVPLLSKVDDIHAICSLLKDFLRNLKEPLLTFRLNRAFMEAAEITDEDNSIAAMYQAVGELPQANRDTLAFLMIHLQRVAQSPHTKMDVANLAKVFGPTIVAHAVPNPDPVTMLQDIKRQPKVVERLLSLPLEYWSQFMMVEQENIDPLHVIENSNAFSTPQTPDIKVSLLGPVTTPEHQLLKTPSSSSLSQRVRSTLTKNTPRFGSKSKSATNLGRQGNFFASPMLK

Molecular target: Rac GTPase-activating protein 1 (Homo sapiens) (UniProt Q9H0H5)
Assay: blockers of MgcRacGAP-driven Rac1 GTP hydrolysis – biochemical, ADP Hunter fluorescence, primary and confirmatory, confirmation (AID 624330);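 note: fluorescence reports GDP produced by GAP-driven GTP hydrolysis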
Settings: MgcRacGAP-stimulated Rac1 GTP hydrolysis, at 30 µM, hits give high values, GST-tagged Rac1 F28L mutant substrate

Compound | inhibition
O=[N+]([O-])c1cc([N+](=O)[O-])c(-n2nnc3ccccc32)c([N+](=O)[O-])c1 | inactive: 6.96%
O=[N+]([O-])c1cc([N+](=O)[O-])c(-c2cnn(-c3ccccc3)c2)c([N+](=O)[O-])c1 | inactive: 11.8%
Cc1nc2ccc3ccccc3c2s1.O=[N+]([O-])c1cc([N+](=O)[O-])c(O)c([N+](=O)[O-])c1 | inactive: 5.05%
CC1=C2N=C(C=C3N=C(C(C)=C4[N-][C@@](C)([C@@H]5N=C1[C@](C)(CCC(=O)NC[C@@H](C)OP(=O)([O-])O[C@H]1[C@@H](O)[C@@H](n6cnc7cc(C)c(C)cc76)O[C@@H]1CO)[C@H]5CC(N)=O)[C@@](C)(CC(N)=O)[C@@H]4CCC(N)=O)[C@@](C)(CC(N)=O)[C@@H]3CCC(N)=O)C(C)(C)[C@@H]2CCC(N)=O.[C-]#N.[Co+3] | inactive: -32.9%
O=[N+]([O-])c1cc([N+](=O)[O-])c(Nc2nnnn2CCO)c([N+](=O)[O-])c1 | inactive: 3.87%
CCOC(=O)C(CC)C1=NC(C)(C)Cc2ccccc21.O=[N+]([O-])c1cc([N+](=O)[O-])c(O)c([N+](=O)[O-])c1 (stereo not given) | inactive: -3.64%
COc1ccccc1OP(C)(=O)Nc1c(C)cccc1C (stereo not given) | inactive: 1.8%
CN1CCCCC1COC(=O)C1(O)c2ccccc2CCc2ccccc21 (stereo not given) | inactive: -16.4%
CCCOc1ccc(NP(C)(=O)Oc2ccc(Cl)cc2)cc1 (stereo not given) | inactive: 6.03%
CP(=O)(Nc1ccc(SC(F)(F)F)cc1)Oc1ccccc1 (stereo not given) | inactive: 3.77%
O=C(O)c1cccc(Nc2c([N+](=O)[O-])cc([N+](=O)[O-])cc2[N+](=O)[O-])c1 | inactive: 19.6%
CC1=NCCc2c1[nH]c1ccccc21.O=[N+]([O-])c1cc([N+](=O)[O-])c(O)c([N+](=O)[O-])c1 | inactive: 5.89%
COc1ccccc1OP(C)(=O)Nc1cccc(Br)c1 (stereo not given) | inactive: 13.7%
CCOC(=O)c1ccc(NP(C)(=O)Oc2cc(C)cc(C)c2)cc1 (stereo not given) | inactive: 7.16%
Cc1cc(C)cc(OP(C)(=O)Nc2ccc(C)cc2C)c1 (stereo not given) | inactive: 1.7%
Cc1ccc(C)c(NP(C)(=O)Oc2ccccc2)c1 (stereo not given) | inactive: 3.74%
Cc1cc(C)cc(OP(C)(=O)Nc2ccccn2)c1 (stereo not given) | inactive: 2.91%
CCN(CC)CCCOC(=O)C(O)(c1ccccc1)c1ccccc1 | inactive: 3.95%
O=[N+]([O-])c1cc([N+](=O)[O-])c(Nc2cccnc2)c([N+](=O)[O-])c1 | inactive: 8.21%
O=[N+]([O-])c1ccc2c(c1)C=Nc1ccccc1O2 | inactive: 4.96%
CC(C)(C)c1ccc(OP(C)(=O)Nc2ccc(SC(F)(F)F)cc2)cc1 (stereo not given) | inactive: -3.17%
Cc1cccc(C)c1OP(C)(N)=O (stereo not given) | inactive: 1.52%
COc1ccccc1OP(C)(=O)Nc1ccc(C)cc1 (stereo not given) | inactive: 7.07%

Compound | inhibition
Cc1ccc(NP(C)(=O)Oc2ccccc2)c(C)c1 (stereo not given) | inactive: 7.22%
CCOC(=O)c1ccc(NP(C)(=O)Oc2ccccc2)cc1 (stereo not given) | inactive: 4.14%
Cc1cc(C)cc(OP(C)(N)=O)c1 (stereo not given) | inactive: -4.12%
COc1ccccc1OP(C)(=O)Nc1cc(Cl)ccc1C (stereo not given) | inactive: 5.17%
COc1ccc(OP(C)(=O)Nc2cccc(F)c2)cc1 (stereo not given) | inactive: 5.96%
CP(=S)(Nn1cnnc1)Oc1ccccc1 (stereo not given) | inactive: -2.24%
CP(=O)(Nc1ccccc1Br)Oc1ccccc1 (stereo not given) | inactive: 6.9%
COc1ccccc1OP(C)(=O)Nc1ccccc1 (stereo not given) | inactive: 2.81%
Cc1ccc(Nc2c([N+](=O)[O-])cc([N+](=O)[O-])cc2[N+](=O)[O-])cc1 | inactive: 8.28%
Cc1cccc(C)c1OP(C)(=O)Nc1ccc(SC(F)(F)F)cc1 (stereo not given) | inactive: 1.28%
CP(=O)(Oc1ccccc1)OC(c1ccccc1)C(F)(F)F (stereo not given) | inactive: 7.26%
CP(=O)(NC(=O)Nc1ccccc1)Oc1ccccc1 (stereo not given) | inactive: -7.56%
CCc1ccc(OP(C)(=O)N2CCN(c3ccc([N+](=O)[O-])cc3)CC2)cc1 (stereo not given) | inactive: 5.85%
Cc1cc(C)cc(OP(C)(=O)Nc2ccc(SC(F)(F)F)cc2)c1 (stereo not given) | inactive: 1.18%
CCOC(=O)c1ccc(NP(C)(=O)Oc2ccc(OC)cc2)cc1 (stereo not given) | inactive: 8.1%
CCOP(C)(=S)SCC(=O)NC(C)C(=O)O (stereo not given) | inactive: 6.25%
CP(=O)(Nc1ccccn1)Oc1ccc(Cl)cc1 (stereo not given) | inactive: 9.24%
CCN(CC)CC(O)COC(=O)C(O)(c1ccccc1)C1CCCCC1 (stereo not given) | inactive: 4.95%
COc1ccc(OP(C)(=O)Nc2ccc(Br)cc2)cc1 (stereo not given) | inactive: -1.27%
COc1ccccc1OP(C)(=O)Nc1c(C)n(C)n(-c2ccccc2)c1=O (stereo not given) | inactive: 10.5%
O=C(OCCCN1CCCC1)C(O)(c1ccccc1)C1CCCCC1 (stereo not given) | inactive: 15.5%
CP(=O)(Oc1ccccc1)N1CCOC1=O (stereo not given) | inactive: 3.2%
CCc1ccc(OP(C)(=O)Nc2cccnc2)cc1 (stereo not given) | inactive: -10.5%

Compound | inhibition
COc1ccccc1OP(C)(=O)Nc1ccccc1Br (stereo not given) | inactive: 7.56%
CC(C)(C)c1ccc(OP(C)(=O)O)cc1 | inactive: 5.8%
CP(=O)(Nc1ccc(Cl)cc1)Oc1ccc(F)cc1 (stereo not given) | inactive: 3.39%
CN(C)C(=O)c1c([N+](=O)[O-])cc([N+](=O)[O-])cc1[N+](=O)[O-] | inactive: -6.76%
CCOC(=O)c1ccc(NP(C)(=O)Oc2ccc(Cl)cc2)cc1 (stereo not given) | inactive: 8.09%
CP(=O)(OC12CC3CC(CC(C3)C1)C2)OC12CC3CC(CC(C3)C1)C2 | inactive: 9.2%
O=C1C(O)=C([N+](=O)[O-])C(=O)C(O)=C1[N+](=O)[O-] | inactive: 22.9%
Cc1cc(C)cc(OP(C)(=O)Nc2cccc(C(F)(F)F)c2)c1 (stereo not given) | inactive: 4.51%
COc1ccccc1OP(C)(=O)Nc1ccc(C)c(C)c1 (stereo not given) | inactive: 13.4%
COc1ccc(OP(C)(=O)Nc2ccccc2Br)cc1 (stereo not given) | inactive: 5.97%
CP(=O)(Nc1ccc(Cl)cc1Cl)Oc1ccccc1 (stereo not given) | inactive: 14%
CP(=O)(OCCOc1ccccc1)OCCOc1ccccc1 | inactive: 3.6%
COc1ccccc1OP(C)(=O)Nc1ccc(Br)cc1 (stereo not given) | inactive: 9.26%
COc1ccc(OP(C)(=O)Nc2ccccn2)cc1 (stereo not given) | inactive: 5.97%
CN(C)CCOC(=O)C(O)(c1ccccc1)C1CCCC1 (stereo not given) | inactive: 3.89%
Cc1c(NP(C)(=O)Oc2ccc(C(C)C)cc2)c(=O)n(-c2ccccc2)n1C (stereo not given) | inactive: 3.31%
O=[N+]([O-])c1cc([N+](=O)[O-])c(Nc2ccccn2)c([N+](=O)[O-])c1 | inactive: 6.3%
CP(=O)(Nc1ccccn1)Oc1ccccc1 (stereo not given) | inactive: 4.04%
COc1ccccc1OP(C)(=O)Nc1ccc(C)cc1C (stereo not given) | inactive: 4.63%
CCc1ccc(OP(C)(=O)O)cc1 | inactive: 0.95%
O=[N+]([O-])c1cc([N+](=O)[O-])c(Nc2ccc(Cl)cc2)c([N+](=O)[O-])c1 | inactive: 7.66%
CP(=O)(Nc1ccccc1F)Oc1ccccc1 (stereo not given) | inactive: -0.11%
CC(C)c1ccc(OP(C)(=O)Nc2ccc(SC(F)(F)F)cc2)cc1 (stereo not given) | inactive: 4%

Compound | inhibition
O=C(OC1CN2CCC1CC2)c1ccc([N+](=O)[O-])cc1 (stereo not given) | inactive: -10.8%
O=C(OCCN1CCN(CCOCc2ccccc2)CC1)C(O)(c1ccccc1)c1ccccc1 | inactive: 0.86%
COc1ccc2c(c1O)-c1c(O)c(OC)cc3c1[C@H](C2)[N+](C)(C)CC3.O=[N+]([O-])c1cc([N+](=O)[O-])c([O-])c([N+](=O)[O-])c1[O-] | inactive: 13.5%
CCOC(=O)c1ccc(NP(C)(=O)Oc2ccc(F)cc2)cc1 (stereo not given) | inactive: 3.72%
COc1ccc(OP(C)(=O)Nc2ccc(SC(F)(F)F)cc2)cc1 (stereo not given) | inactive: 6.52%
Cc1c([N+](=O)[O-])cc([N+](=O)[O-])c(Br)c1[N+](=O)[O-] | inactive: 5.34%
CCN(CC)CCCOC(=O)C(O)(c1ccccc1)C1CCCCC1 (stereo not given) | inactive: 1.48%
CP(=O)(Nc1ccccc1)Oc1ccc(F)cc1 (stereo not given) | inactive: 1.08%
CCCCCOc1ccc(NP(C)(=O)Oc2ccc(Cl)cc2Cl)cc1 (stereo not given) | inactive: 11.4%
O=[N+]([O-])c1cc([N+](=O)[O-])c(OC2CCCCC2O)c([N+](=O)[O-])c1 (stereo not given) | inactive: 6.62%
COc1ccc(OP(C)(=O)Nc2cccc(Br)c2)cc1 (stereo not given) | inactive: 8.1%
CN(C)CCOC(=O)C(O)(c1ccccc1)C1CCCCC1 (stereo not given) | inactive: 10.5%
COc1ccc(NP(C)(=O)Oc2ccccc2OC)cc1 (stereo not given) | inactive: 4.15%
O=[N+]([O-])c1ccc(OP2(=O)COCCO2)cc1 (stereo not given) | inactive: 8.83%
Cc1cc(-c2cccc3ccccc23)c(C)cn1.O=[N+]([O-])c1cc([N+](=O)[O-])c(O)c([N+](=O)[O-])c1 | inactive: 8.7%
O=[N+]([O-])c1cc([N+](=O)[O-])c(NCC2CCS(=O)(=O)C2)c([N+](=O)[O-])c1 (stereo not given) | inactive: 7.81%
Cc1c(C(c2ccc3c(c2)OCO3)c2c(C)n(C)n(-c3ccccc3)c2=O)c(=O)n(-c2ccccc2)n1C.O=[N+]([O-])c1cc([N+](=O)[O-])c(O)c([N+](=O)[O-])c1 | inactive: 1.21%
CP(=O)(Nc1ccc(SC(F)(F)F)cc1)Oc1ccc(F)cc1 (stereo not given) | inactive: -2.88%
CCOP(C)(=S)SCC(=O)NC(C)(CC)C(=O)O (stereo not given) | inactive: 4.91%
CP(=O)(Nc1ccc2c(c1)OCCO2)Oc1ccccc1 (stereo not given) | inactive: 18%
Cc1ccccc1NP(C)(=O)Nc1ccccc1C | inactive: 4.01%
